Results as given in patent US10703746B2, “Mutant IDH1 inhibitors useful for treating cancer” (THE UNITED STATES OF AMERICA, AS REPRESENTED BY THE …, priority 2014, dated 2020).
Where two headings read alike, the source gives them in different places.

By UniProt entry, the sequences of proteins in these tests, tags left out.
UniProt O75874, whole entry R132C: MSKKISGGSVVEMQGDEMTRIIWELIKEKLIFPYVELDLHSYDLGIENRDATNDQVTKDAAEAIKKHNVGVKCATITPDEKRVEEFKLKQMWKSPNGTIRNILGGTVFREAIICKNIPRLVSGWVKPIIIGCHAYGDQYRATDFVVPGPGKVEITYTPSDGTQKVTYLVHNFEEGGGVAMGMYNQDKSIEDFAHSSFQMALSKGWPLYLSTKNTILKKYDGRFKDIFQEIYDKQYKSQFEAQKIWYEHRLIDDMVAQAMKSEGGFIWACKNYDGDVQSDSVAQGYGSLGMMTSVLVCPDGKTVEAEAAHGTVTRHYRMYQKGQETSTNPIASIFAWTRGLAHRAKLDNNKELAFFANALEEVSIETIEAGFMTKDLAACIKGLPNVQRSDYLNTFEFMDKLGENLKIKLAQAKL
UniProt O75874, whole entry R132H: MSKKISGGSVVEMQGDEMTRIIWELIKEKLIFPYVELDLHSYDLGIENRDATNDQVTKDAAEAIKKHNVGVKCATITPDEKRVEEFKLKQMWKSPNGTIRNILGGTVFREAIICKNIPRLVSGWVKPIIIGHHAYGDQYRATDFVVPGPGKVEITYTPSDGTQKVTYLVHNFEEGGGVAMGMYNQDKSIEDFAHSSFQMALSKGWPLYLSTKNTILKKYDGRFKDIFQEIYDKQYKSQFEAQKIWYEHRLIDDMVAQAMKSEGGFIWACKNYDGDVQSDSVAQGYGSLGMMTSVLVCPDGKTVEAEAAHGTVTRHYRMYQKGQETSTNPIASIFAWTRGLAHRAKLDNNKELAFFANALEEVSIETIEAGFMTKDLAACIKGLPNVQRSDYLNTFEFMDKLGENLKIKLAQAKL

What was measured:
[1] = target: IDH1 R132H (Homo sapiens, UniProt O75874, R132H); test: IDH1 R132H enzymatic assay (NADPH depletion coupled to diaphorase/resazurin); settings: read-out: Data for R132H
[2] = target: IDH1 R132C (Homo sapiens, UniProt O75874, R132C); test: IDH1 R132C enzymatic assay (NADPH depletion coupled to diaphorase/resazurin); settings: read-out: Data for R132C
[3] = IDH1 R132H enzymatic inhibition, IC50 class
[4] = IDH1 R132C enzymatic inhibition, IC50 class
[5] = enzymatic inhibition, IDH1 R132H
[6] = enzymatic inhibition, IDH1 R132C

| IC50 [1, 3] [nM] | IC50 [2, 4] [nM] | IC50 [1, 5] [nM] | IC50 [2, 6] [nM] | Compound | also measured |
| --- | --- | --- | --- | --- | --- |
| – | – | – | – | CCOc1cccc(F)c1-n1c(C=C(C)C)c(C(=O)N2CCNCC2)cc(-c2nc(-c3ccc(Cl)cc3)cs2)c1=O | IC50 ([1]; enzymatic inhibition, IDH1 R132H, tested form: TFA salt): < 300 nM; IC50 ([2]; enzymatic inhibition, IDH1 R132C, tested form: TFA salt): < 300 nM |
| 1000 to 5000 | 1000 to 5000 | – | – | CCc1cccc(CC)c1-n1c(CC(C)C)c(C(=O)N2CCNCC2)cc(-c2nc(-c3ccc(OCC(C)C)cc3)c(C)s2)c1=O | – |
| 300 to 1000 | 300 to 1000 | – | – | CCOc1ccc(OCC)c(-n2c3c(cc(-c4nc(-c5ccc(Cl)cc5)cs4)c2=O)C(=O)CCC3)c1 | – |
| 300 to 1000 | < 300 | – | – | CCc1cccc(CC)c1-n1c(CC(C)C)c(C(=O)N2CCNCC2)cc(-c2nc(-c3ccc(OC(F)(F)F)cc3)c(C)s2)c1=O | – |
| – | – | 300 to 1000 | < 300 | CCc1cccc(CC)c1-n1c(C=C(C)C)c(C(=O)N2C[C@@H]3C[C@H]2CN3)cc(-c2nc(-c3ccc(C(F)(F)F)cc3)cs2)c1=O | – |
| 5000 to 20000 | 5000 to 20000 | – | – | CCc1cccc(CC)c1-n1c(CO)c(C(=O)O)cc(-c2nc(-c3ccc(Cl)cc3)cs2)c1=O | – |
| 300 to 1000 | < 300 | – | – | CCc1cccc(CC)c1-n1c(CC(C)C)c(C(=O)NCC(C)O)cc(-c2nc(-c3ccc(Cl)cc3)cs2)c1=O (centres unmarked) | – |
| – | – | < 300 | 300 to 1000 | CCc1cccc(CC)c1-n1c(CC(C)OC)c(C(=O)N2CCNCC2)cc(-c2nc(-c3ccc(Cl)cc3)cs2)c1=O (centres unmarked) | – |
| – | – | – | – | CCc1cccc(CC)c1-n1c(C=C(C)C)c(C(=O)N2CCNCC2)cc(-c2ccn(-c3ccc(OC(C)C)cc3)n2)c1=O | IC50 ([1]; IDH1 R132H enzymatic inhibition, IC50 class, tested form: TFA salt): < 300 nM; IC50 ([2]; IDH1 R132C enzymatic inhibition, IC50 class, tested form: TFA salt): < 300 nM |

| Compound | IC50 [1, 3] [nM] | IC50 [2, 4] [nM] | IC50 [1, 5] [nM] | IC50 [2, 6] [nM] | also measured |
| --- | --- | --- | --- | --- | --- |
| CCc1cccc(CC)c1-n1c(C=C(C)C)c(C(=O)N2C[C@H]3CC[C@@H](C2)N3)cc(-c2nc(-c3ccc(Cl)cc3)cs2)c1=O [Compound 388] | – | – | < 300 | < 300 | – |
